# Data published in patent publication US6890919B2, “Atypical antipsychotic agents having low affinity for the D2 receptor” (priority 2001, dated 2005).
# By UniProt entry, the sequences of proteins in these tests, tags left out.
# UniProt P14416, whole entry, species assumed: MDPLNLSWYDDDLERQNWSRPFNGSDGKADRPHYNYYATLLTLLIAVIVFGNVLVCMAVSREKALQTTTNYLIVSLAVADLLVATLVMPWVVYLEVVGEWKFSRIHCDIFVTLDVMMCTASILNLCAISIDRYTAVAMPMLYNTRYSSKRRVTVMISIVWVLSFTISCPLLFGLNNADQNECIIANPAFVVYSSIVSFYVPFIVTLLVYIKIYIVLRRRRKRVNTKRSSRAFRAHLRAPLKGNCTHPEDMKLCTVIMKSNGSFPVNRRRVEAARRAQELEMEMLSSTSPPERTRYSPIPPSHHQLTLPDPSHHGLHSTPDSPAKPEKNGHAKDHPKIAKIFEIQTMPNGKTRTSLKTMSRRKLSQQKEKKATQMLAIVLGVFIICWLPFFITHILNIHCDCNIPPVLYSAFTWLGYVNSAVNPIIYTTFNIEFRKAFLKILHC
# pKi: −log10 of the molar value.
# Target: dopamine D2 receptor (Homo sapiens, UniProt P14416)
# Assay: Binding affinity for dopamine D2 receptor, 3H-raclopride as ligand (Seeman 1993)
compound,measurement,value
"CN1CCN(C2=Nc3cc(Cl)ccc3Oc3ccccc32)CC1 [Isoloxapine, reference compound]",pKi,7.70
